scFv variants of Ab-14 (light chain) against a SARS-CoV-2 spike peptide

From the AlphaSeq antibody data of Li et al. 2023 (doi:10.1038/s41467-023-39022-2), copy in the FLAb collection.

Binding partner: SARS-CoV-2 spike HR2 peptide, sequence PDVDLGDISGINAS.

Each scFv is VH, a 15-residue (Gly4Ser)3 linker, VL, as in the parent Ab-14, and differs from it in the CDRs of the light chain only.
VH: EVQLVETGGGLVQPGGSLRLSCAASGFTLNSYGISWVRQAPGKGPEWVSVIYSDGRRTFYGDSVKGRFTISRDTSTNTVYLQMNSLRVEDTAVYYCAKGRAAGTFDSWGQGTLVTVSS
VL: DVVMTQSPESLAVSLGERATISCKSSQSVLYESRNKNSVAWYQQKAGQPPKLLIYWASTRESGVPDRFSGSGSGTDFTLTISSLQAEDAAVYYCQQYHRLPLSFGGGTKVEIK

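Designed CDR sequences, proposed from the first random library and measured here. Group labels follow the data file (Ctrl: baseline library sampled from a position-specific scoring matrix, with some repeated check sequences; GP: Gaussian process model; Gen: genetic algorithm; a sequence that several methods proposed may carry one label only). The scFvs were displayed on barcoded MATa yeast, the peptide on MATalpha yeast. The frequency of each diploid, read from paired DNA barcodes, reflects how well the two displayed proteins bind. A regression on co-assayed BCL2-family reference pairs converts the normalised counts of each replicate to an apparent Kd. There are six technical replicates.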

Substitutions are numbered in sequence along the VL above, starting at 1 (not Kabat). Scale: log10 of Kd in nM, estimated from mating counts; low values are strong binders. A mean of the replicates is given; it leaves out those without a signal. An entry "ND" has no value in the source: the pair was not observed among the diploids in that replicate. This suggests poor binding but is not conclusive. Some sequences occur more than once in the pool; their replicates are listed entry by entry, parted by semicolons. The authors' rule: three or more of the six replicates give a measured affinity, fewer mean a poor binder. As a blank, each scFv also met three strains without target: over all light chain designs, 4% of these pairings were detected, typically at 2.64 and seldom below 1.59. The control count says in how many pairings with the empty strains this scFv gave a signal, with their mean in brackets. Of ten entries with the parent sequence, four were seen in most replicates (averages 0.34 to 2.37), three in one and three in none, so single entries are noisy. The range of this assay differs from that of the first round, and the authors advise against merging the two.

changes	group	log10 Kd (nM) by replicate	log10 Kd (nM), mean	signal with controls
Q27N W56G R99Y	Ctrl	0.92 0.86 0.69 1.41 1.25 1.36	1.08	0/18
W56D S58M	Ctrl	0.11 -0.01 0.08 -0.32 -0.16 0.06	-0.04	1/18 (2.56)
Y31G A57G	Ctrl	1.50 1.32 1.04 1.15 1.84 1.49	1.39	0/18
Y31P T59W H98Q	Ctrl	ND ND ND 1.12 ND ND	1.12	0/18
W56K H98F	Ctrl	1.01 1.02 0.66 0.27 0.54 0.64	0.69	0/18
S25I S26Q Y31P	Ctrl	0.87 0.71 0.78 0.59 0.69 1.12	0.79	1/18 (2.58)
V29R R34K P101K	Ctrl	2.20 ND ND ND ND ND	2.20	0/18
K24A Y31H	Ctrl	ND ND ND ND ND 1.05	1.05	0/18
L30I H98D	Ctrl	ND ND ND ND ND ND	ND	0/18
S25M R34C W56S	Ctrl	0.87 0.59 0.64 0.21 0.37 0.64	0.55	1/18 (2.50)
L30N R34L N37A	Ctrl	ND ND 1.86 ND 2.90 2.19	2.32	1/18 (2.73)
S25I Y31E R60Q	Ctrl	1.33 1.69 2.11 0.99 0.95 1.51	1.43	0/18
Q96S	Ctrl	ND ND 2.36 ND 4.00 2.10; ND ND ND ND ND 2.60; 3.48 ND 3.06 ND 2.73 ND; ND ND ND ND ND ND; 3.19 1.38 1.76 2.00 2.37 3.05	2.62	3/90 (2.55)
S25L W56N	Ctrl+GP_Gen	-0.01 -0.10 0.02 -0.27 -0.20 0.04; 0.08 -0.13 -0.02 -0.09 -0.10 0.04	-0.06	4/36 (4.13)
N37P E61M Y97V	Ctrl	2.07 3.20 ND ND ND ND	2.63	0/18
S26P W56N	Ctrl	0.68 0.64 0.46 0.29 1.00 0.55	0.60	1/18 (2.44)
K36H V39I W56N S58L H98C	Ctrl	0.78 1.10 0.65 0.30 0.77 0.48	0.68	0/18
Y31M R34E L102C	Ctrl	2.25 1.36 1.56 1.76 1.66 1.94	1.75	0/18
S25R Y31E N37Q	Ctrl	ND ND ND ND ND ND	ND	0/18
K24Y S25Q Y31Q E61L Y97E	Ctrl	ND ND ND ND ND ND	ND	0/18
V29F V39I	Ctrl	ND ND 1.75 2.80 ND 2.56	2.37	1/18 (2.51)
S25Y S28Q V29E R34I K36L W56N	Ctrl	0.27 0.30 0.04 0.13 0.12 0.26	0.19	0/18
S25C T59L	Ctrl	2.02 1.33 2.09 ND 1.76 3.25	2.09	0/18
S26D Q27M L30Y Y31F	Ctrl	2.88 ND 2.43 2.23 2.32 2.50	2.47	0/18
R34L W56A L102F	Ctrl	0.81 0.46 0.57 0.55 0.29 0.79	0.58	0/18
S25M Y31I V39L W56H E61V Q95V Q96W H98F	Ctrl	0.77 1.33 1.42 1.22 1.13 1.93	1.30	0/18
W56N R99I S103Y	Ctrl	0.60 0.43 0.39 0.48 0.54 0.59	0.50	4/18 (4.07)
K24Q S26H V29I Y97D	Ctrl	ND ND ND ND ND ND	ND	0/18
S28Y W56G	Ctrl	0.53 0.81 0.72 0.36 0.59 0.65	0.61	1/18 (2.09)
Q95T	Ctrl	ND ND ND ND ND ND	ND	0/18
Q27P L30G E61H Q95F	Ctrl	ND ND ND ND ND ND	ND	0/18
S25K S26D Q96L P101I	Ctrl	ND ND ND ND ND ND	ND	1/18 (1.83)
S25V R34E S58G S62A	Ctrl	1.22 1.36 1.20 1.06 0.58 2.35	1.29	0/18
L30M N35D	Ctrl	ND ND ND ND ND ND	ND	0/18
K36M	Ctrl	2.82 1.44 ND 2.68 2.69 1.50	2.23	1/18 (2.55)
E32T	Ctrl	2.52 ND 2.58 2.81 ND 2.26	2.54	1/18 (1.73)
S33Y R34D R99S	Ctrl	ND 1.26 1.69 ND ND 2.07	1.67	1/18 (1.85)
S26M H98E	Ctrl	ND ND 0.46 1.82 ND ND	1.14	1/18 (1.10)
S25G V29Q R34S W56G	Ctrl	ND -0.04 0.88 0.16 -0.51 0.43	0.18	0/18
S25R R34E W56Q T59Q	Ctrl	0.43 -0.10 0.21 0.33 0.23 0.35	0.24	0/18
R34H H98N	Ctrl	ND 1.83 ND 1.49 ND 1.54	1.62	0/18
S25D N35G K36A W56F	Ctrl	1.23 1.41 ND 1.55 1.47 ND	1.42	0/18
W56G R99C	Ctrl	0.17 -0.19 -0.05 -0.04 0.20 0.44	0.09	2/18 (2.21)
L30T Y31Q N37G	Ctrl	1.61 2.27 2.24 ND 2.35 2.61	2.22	1/18 (2.67)